The structures appear in SMILES notation. Values joined by “and” are separate entries in the source; they are usually repeats but may differ in a detail not shown here. Equal values may be shown once. The list shows a part of the results, in another mix than the full data. Records with an inconclusive call do not appear. Active and inactive are the calls of the source. Calls follow the shape of the dose curve; as a rule, active = well fitted curve in the direction sought with a large enough effect; inconclusive = small, poorly fitted or top-dose-only effect, or another doubt; inactive = no such curve, though single readings can be large or run the other way.

This assay in a line: Secondary assay for Activators of Human Pyruvate Kinase M2 isoform - Cell Titer Glo cytotoxicity assay. Also: % of control where 0% means no effect. The conditions noted are these: HeLa viability, CellTiter-Glo ATP luminescence, 24 h; at 57.5 µM (top of the series). The protocol:
NIH Chemical Genomics Center [NCGC] Matthew G. Vander Heiden, M.D., Ph.D. [Harvard Medical School, 77 Avenue Louis Pasteur, Boston, MA 02115] MLPCN Grant: 1 R03 MH085679-01 NCGC Assay Overview: We have identified a series of activators of the M2 isoform of human pyruvate kinase. The assay described here examines the cytotoxicity of these compounds by measuring the total ATP content of Hela cells after 24 hrs of exposure to compound.
Assay Protocol: 500 Hela cells/ 4ul in media (DMEM with high glucose, 10% FBS, 1x Pen Strep, 1x NEAA) were dispensed into a white solid 1536-microwell plate with a Thermo Multidrop. The plates were incubated at 37 degrees Celsius for 24 hours. The cells were then treated with compounds using the Kalypsys pin tool, delivering 23 nl of test compounds and the control doxorubicin. The plates were then incubated for an additional 24 hours at 37 degrees C after which 4 ul of Promega Cell-Titer Glo was dispensed using the Thermo Multidrop. The plates were incubated at room temperature for 10 min before reading luminescence on the Perkin Elmer ViewLux with images collected with 2x binning and a 5 sec exposure time.
On the technique in general: ATP-based viability assays read luminescence as a measure of living cells.
On to `Cc1cc2c(s1)c1cnn(Cc3ccccc3F)c(=O)c1n2C`, for which the activity change, negative = cytotoxicity is inactive: -0.0153% and inactive: 8.38% and inactive: -24%.

Source of the values: PubChem BioAssay AID1898 (National Center for Advancing Translational Sciences (NCATS), 2009).
